Read-out in the assay: xenobiotic metabolism (CYP2C9), CYP2C9 (gene 1559)
Nature of the assay: CLD_CYP2C9_48hr: CellzDirect (CLD) Gene Expression Assay for xenobiotic metabolism (CYP1A2) at 48 hours. The gist of the method: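 mRNA level measured by quantitative nuclease protection (S1 digestion, chemiluminescent detection) in lysates of human primary hepatocytes exposed 48 h with daily re-dosing. Induction fitted positively versus 0.2% DMSO; morphology-based cytotoxicity flagged yes/no.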

The list shows a part of the results, in another mix than the full data. Inconclusive results are not listed. The source made the active and inactive calls. The calls were made as follows: active = hit-call score of the fitted dose curve at least 0.9, where 1 is the maximum; inactive = score below 0.9.

Consider `CC(C)OP(=S)(OC(C)C)SCCNS(=O)(=O)c1ccccc1`, for which the result was inactive.

As to `O=C1C2CC=CCC2C(=O)N1SC(Cl)(Cl)C(Cl)Cl` (configuration not stated), the call was inactive.

For the origin of these results see PubChem BioAssay AID2283701 (EPA ToxCast).
